From patent US7211395

Protein sequences, listed by entry. Tags and fused reporters are not part of them.
goat serum albumin (goat), P85295, UniProt P85295, whole entry: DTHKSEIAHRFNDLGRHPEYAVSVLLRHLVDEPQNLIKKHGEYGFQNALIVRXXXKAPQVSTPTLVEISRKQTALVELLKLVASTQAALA

What was measured:
[1] = target: human serum albumin (HSA) (human), P02768; experiment: FP; conditions: modification not given
[2] = target: human serum albumin (HSA) (human), P02768; experiment: FP; conditions: modification not given; remark: listed apart in the source
[3] = target: human serum albumin (HSA) (human), P02768; experiment: FP; conditions: modification not given; remark: listed apart in the source
[4] = target: human serum albumin (HSA) (human), P02768; experiment: FP; conditions: modification not given; remark: listed apart in the source
[5] = target: human serum albumin (HSA) (human), P02768; experiment: FP; conditions: modification not given; remark: listed apart in the source
[6] = target: human serum albumin (HSA) (human), P02768; experiment: FP; conditions: modification not given; remark: listed apart in the source
[7] = target: goat serum albumin (goat), P85295; experiment: FP, PBS pH 7.4; conditions: disulfide cyclic, N-acetyl, C-amide, fluorescein on Lys; also SEQ32
[8] = target: goat serum albumin (goat), P85295; experiment: FP, pH 6.2, no NaCl; conditions: disulfide cyclic, N-acetyl, C-amide, fluorescein on Lys; also SEQ32
[9] = target: human serum albumin (HSA) (human), P02768; experiment: FP; conditions: modification not given; remark: listed apart in the source

Row | Binder | Kd [1] [µM] | also measured
1 | AEGTGDFWFCDRAAWYPQHLCEFLDPEGGGK [DX-236 Ala mutant 123] | 4.5 | Kd [2]: 1.1 µM
2 | AEGTGDFWFCDRIAWYPQHLCEALDPEGGGK [DX-236 Ala mutant 115] | 44 | Kd [3]: 1.7 µM
3 | AEGTGDFWFCDRIAWYPQHLCAFLDPEGGGK [DX-236 Ala mutant 116] | 1.7 | Kd [4]: 6.6 µM
4 | AEGTGDFWACDRIAWYPQHLCEFLDPEGGGK [DX-236 Ala mutant 126] | 1.1 | Kd [5]: 43 µM
5 | AEGTGDFWFCDRIAWYAQHLCEFLDPEGGGK [DX-236 Ala mutant 120] | 43 | 
6 | AEGTGDFWFCDRIAWYPQALCEFLDPEGGGK [DX-236 Ala mutant 118] | 1.7 | 
7 | AEGTGDFWFCARIAWYPQHLCEFLDPEGGGK [DX-236 Ala mutant 125] | 1.6 | 
8 | AEGTGDFWFCDRIAWYPQHACEFLDPEGGGK [DX-236 Ala mutant 117] | 34.5 | 
9 | AEGTGDFWFCDRIAWYPQHLCEFADPEGGGK [DX-236 Ala mutant 114] | 47 | Kd [6]: 2.1 µM
10 | DRIAWYPQHLGGGK [DX-236 truncation SEQ 44] | 125 | 
11 | AEGTGDFWFCDRIAWYPQHLCEFLDPEGGGK [DX-236] |  | Kd [7]: 23 µM; Kd [8]: 1.6 µM
12 | AEGTGDFWFCDRIAWYPQHLCEFLAPEGGGK [DX-236 Ala mutant 113] | 10.5 | Kd [9]: 1.7 µM
13 | AEGTGDFWFCDRIAAYPQHLCEFLDPEGGGK [DX-236 Ala mutant 122] | 44 | 
